The text below walks through data of patent US20250313563A1, “GLYCOGEN SYNTHASE KINASE 3 INHIBITORS AND USES THEREOF” (The Broad Institute, Inc., priority 2022, published 2025).

Protein sequences, listed by entry. Tags and fused reporters are not part of them.
UniProt P49841, whole entry: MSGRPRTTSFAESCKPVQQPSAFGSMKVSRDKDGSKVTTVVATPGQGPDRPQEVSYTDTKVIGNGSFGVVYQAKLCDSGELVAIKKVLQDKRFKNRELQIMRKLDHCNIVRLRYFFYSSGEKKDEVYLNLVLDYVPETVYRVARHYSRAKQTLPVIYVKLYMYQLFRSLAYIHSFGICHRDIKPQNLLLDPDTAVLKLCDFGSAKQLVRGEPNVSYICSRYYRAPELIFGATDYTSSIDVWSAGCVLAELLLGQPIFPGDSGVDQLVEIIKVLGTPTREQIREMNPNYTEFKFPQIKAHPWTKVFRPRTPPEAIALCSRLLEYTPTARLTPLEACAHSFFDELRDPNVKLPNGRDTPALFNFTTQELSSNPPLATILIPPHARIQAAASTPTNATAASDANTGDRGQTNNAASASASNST
UniProt P49840, whole entry: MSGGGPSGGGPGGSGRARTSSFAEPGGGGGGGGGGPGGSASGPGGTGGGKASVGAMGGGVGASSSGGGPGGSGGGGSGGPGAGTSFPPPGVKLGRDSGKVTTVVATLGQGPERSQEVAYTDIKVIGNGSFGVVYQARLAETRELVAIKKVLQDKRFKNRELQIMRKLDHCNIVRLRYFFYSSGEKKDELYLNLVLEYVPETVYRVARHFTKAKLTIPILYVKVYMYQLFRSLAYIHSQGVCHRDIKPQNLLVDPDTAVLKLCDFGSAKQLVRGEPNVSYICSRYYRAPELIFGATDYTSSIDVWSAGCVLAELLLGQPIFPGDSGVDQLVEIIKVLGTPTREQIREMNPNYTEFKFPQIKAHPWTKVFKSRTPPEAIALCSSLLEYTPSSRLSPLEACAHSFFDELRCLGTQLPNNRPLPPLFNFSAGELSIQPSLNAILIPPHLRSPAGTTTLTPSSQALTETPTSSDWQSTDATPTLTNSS

Like-named read-outs stand apart in the source and are kept apart here.

For series [1], the target named is GSK3b (GST-full length GSK3b) (Homo sapiens (Human), UniProt P49841). The series is described as follows: GSK3b TR-FRET kinase assay. Type of series: biochemical.
In series [2] the target is GSK3α (GST-full length GSK3α) (Homo sapiens (Human), UniProt P49840). The series is described as follows: GSK3α TR-FRET kinase assay. Type of series: biochemical.
Series [3] is described as follows: Microsomal stability (MIC), human. To be noted: human liver microsomes.
Series [4] in a line: Microsomal stability (MIC), mouse. The following applies: mouse liver microsomes. (Liver microsomes are vesicles of endoplasmic reticulum, rich in cytochrome P450 enzymes.)
[5] abbreviates: read-out: GSK3-B (TR-FRET 1 mM ATP), GMean, IC50, 1 mM ATP, geometric mean.
[6] abbreviates: read-out: GSK3b (100 μM ATP) Average IC50, 100 μM ATP.
The mark [7] stands for this setting: read-out: GSK3-A (TR-FRET 1 mM ATP), GMean, IC50, 1 mM ATP, geometric mean.
The mark [8] stands for this setting: read-out: GSK3a (100 μM ATP) Average IC50, 100 μM ATP.

`CC(C)(C)Cc1[nH]nc2c1C1(CN(S(=O)(=O)c3ccccc3)C1)C1=C(CC(C)(C)CC1=O)N2`: the IC50 in series [1] (setting [5]) was 1000 to 5000 nM; in series [1] (setting [6]), 66 nM; in series [2] (setting [7]) it was above 5000 nM; in series [2] (setting [8]) it was 438 nM. Moreover, in series [3], the “Microsome stability (human); in vitro T1/2” value is 2.27 min.

As for `CC(C)(C)Cc1[nH]nc2c1C1(CN(S(=O)(=O)CC3CC3)C1)C1=C(CC(C)(C)CC1=O)N2`, the IC50 in series [1] (setting [5]) was 1000 to 5000 nM; in series [1] (read-out: GSK3b (10 μM ATP) Average IC50, 10 μM ATP), 3 nM; in series [1] (setting [6]), 55 nM; in series [2] (setting [7]), above 5000 nM; in series [2] (read-out: GSK3a (10 μM ATP) Average IC50, 10 μM ATP) it was 51 nM; in series [2] (setting [8]) it was 956 nM. The “Microsome stability (mouse); in vitro T1/2” value in series [4] was determined as 7.685 min. Besides, the “Microsome stability (human); in vitro T1/2” value in series [3] is 9.978 min.
